Experiment [1] concerns the target Kappa-type opioid receptor (Mus musculus) (UniProt P33534). In words: Agonistic activity on field stimulated mouse vas deferens preparation expressed as molar potency ratio relative to standard agonist EKC.
Experiment [2] has the same target. In words: In vitro efficacy in field stimulated mouse vas deferens assay expressed as Ke for naloxone versus compound.
For experiment [3], the species on record is Mus musculus. In words: Agonistic activity on field stimulated mouse vas deferens preparation expressed as molar potency ratio relative to standard agonist EKC; c = Weak antagonist, Ke = 530 nM. The settings on record: filed as antagonist.
The target of experiment [4] is Kappa-type opioid receptor (Mus musculus) (UniProt P33534). Kind of experiment: Molar potency ratio relative to the standard agonist EKC assayed in mouse vas deferens.
Experiment [5] has the same target. In words: In vitro efficacy against naloxone, in mouse vas deferens, activity expressed as Ke values.
The species entered for experiment [6] is Mus musculus. In words: In vitro efficacy against naloxone, in mouse vas deferens, activity expressed as Ke values; d = Antagonism not competitive. The settings on record: filed as antagonist.
The species entered for experiment [7] is Mus musculus. In words: In vitro efficacy against naloxone, in mouse vas uM. As to conditions: filed as antagonist.

Sequences of proteins named here, by UniProt entry; tags and fusion partners are left off. A change or cut given only in a name is not applied to a line headed by its entry.
UniProt P33534: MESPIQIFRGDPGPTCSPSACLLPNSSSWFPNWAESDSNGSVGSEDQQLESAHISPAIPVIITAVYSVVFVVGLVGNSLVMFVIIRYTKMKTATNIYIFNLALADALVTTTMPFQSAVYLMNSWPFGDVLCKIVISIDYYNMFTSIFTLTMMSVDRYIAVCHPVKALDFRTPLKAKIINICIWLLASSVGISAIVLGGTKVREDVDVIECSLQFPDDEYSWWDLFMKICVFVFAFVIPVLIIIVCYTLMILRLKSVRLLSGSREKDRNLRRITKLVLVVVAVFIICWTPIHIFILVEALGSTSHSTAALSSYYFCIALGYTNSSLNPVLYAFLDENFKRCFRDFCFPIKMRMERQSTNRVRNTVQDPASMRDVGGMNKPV

With `CC(C)[C@@H](CN1CCCC1)N(C)C(=O)Cc1ccc([N+](=O)[O-])cc1`, the Potency ratio in experiment [1] amounted to 0.24. In addition, in experiment [2], the Ke worked out at 16.9 nM.

As to `CC(C)[C@@H](CN1CCCC1)N(C)C(=O)CCc1ccccc1`, the Potency ratio in experiment [1] came out at 2.

For the compound `CC(C)[C@@H](CN(C)Cc1ccccc1)N(C)C(=O)Cc1ccc(Cl)c(Cl)c1`, the Potency ratio result in the experiment filed under Mus musculus [3] was “Partial antagonist”.

Consider `CN(C(=O)Cc1ccc(Cl)c(Cl)c1)C1CCCCC1N1CCCC1` (stereo not given), for which the Potency ratio in experiment [4] came out at 0.11. The compound also had a Ke in experiment [5] of 15.5 nM.

In the case of `CC(C)[C@@H](CN1CCCC1)N(C)C(=O)Cc1ccccc1`, in experiment [1], the Potency ratio amounted to 0.016.

On to `C=CCN(C)C[C@H](c1ccccc1)N(C)C(=O)Cc1ccc(Cl)c(Cl)c1`, for which, in experiment [1], the Potency ratio is 10.3. In experiment [2], this compound registered a Ke of 11.8 nM.

Take `CC(C)[C@@H](CN1CCCC1)N(C)C(=O)COc1ccccc1`: in experiment [1], the Potency ratio is 1.7. In experiment [2], the Ke came to 21.8 nM.

`CC(=O)Nc1cccc(C(CN2CCCC2)N(C)C(=O)Cc2ccc(Cl)c(Cl)c2)c1` (stereo not given): in experiment [1], the Potency ratio amounted to 21.4.

As to `CC(C)C[C@@H](CN1CCCC1)N(C)C(=O)Cc1ccc(Cl)c(Cl)c1`, in the experiment listed under Mus musculus [6], the Ke entry is recorded as “Non-competitive antagonist”.

Consider `CC(C)[C@@H](CN1CCCC1)N(C)C(=O)Cc1ccc(F)c(F)c1`, for which the Potency ratio in experiment [1] amounted to 0.1.

For `CC(C)[C@@H](CN1CCCC1)N(C)C(=O)Cc1ccc(C(F)(F)F)cc1`, the Potency ratio in experiment [1] was found to be 0.97. The compound also yielded a Ke in experiment [2] of 15.5 nM.

For the compound `CC(C)[C@@H](CN1CCCC1)N(C)C(=O)CSc1ccccc1`, the Potency ratio in experiment [1] came out at 0.63. Also, the Ke in experiment [2] is 15.2 nM.

`CC(C)[C@@H](CN1CCCC1)NC(=O)Cc1ccccc1`: the Potency ratio in experiment [1] was found to be 0.08.

As to `CCCN(C(=O)Cc1ccccc1)[C@H](CN1CCCC1)C(C)C`, in experiment [1], the Potency ratio is 0.021.

Take `CC(C)[C@@H](CN(C)C)N(C)C(=O)Cc1ccc(Cl)c(Cl)c1`: in experiment [1], the Potency ratio was 0.32. This compound yielded a Ke in experiment [2] of 27.2 nM.

On to `CCCN(C)C[C@H](C(C)C)N(C)C(=O)Cc1ccc(Cl)c(Cl)c1`, for which the Potency ratio in experiment [1] was found to be 1.18. In experiment [2], this compound came in with a Ke of 8.9 nM.

For the compound `CCN(C(=O)Cc1ccccc1)[C@H](CN1CCCC1)C(C)C`, the Potency ratio in experiment [1] came to 0.07. This compound also had a Ke in experiment [2] of 16 nM.

For `CN(C(=O)Cc1ccc(Cl)c(Cl)c1)[C@@H](CN1CCCC1)c1ccccc1`, the Ke result in the experiment listed under Mus musculus [7] was “Partial antagonist”.

In the case of `CC(C)[C@@H](CN1CCCC1)N(C)C(=O)Cc1ccc(Cl)cc1`, in experiment [4], the Potency ratio came to 0.4. The same compound had a Ke in experiment [5] of 16.3 nM.

Consider `CC(C)[C@@H](CN1CCCC1)N(C)C(=O)Cc1cccc(Cl)c1`, for which the Potency ratio in experiment [4] was determined as 0.49. In experiment [5], the Ke came out at 12.1 nM.

As to `CC(C)[C@@H](CN1CCCC1)N(C)C(=O)Cc1ccc(C#N)cc1`, the Potency ratio in experiment [1] turned out to be 0.08. The same compound gave a Ke in experiment [2] of 16.5 nM.

Turning to `CNC[C@H](C(C)C)N(C)C(=O)Cc1ccc(Cl)c(Cl)c1`, in experiment [1], the Potency ratio is 0.003.

For `CC(C)[C@@H](CN(C)C(C)C)N(C)C(=O)Cc1ccc(Cl)c(Cl)c1`, the Potency ratio in experiment [1] is 3.84. In experiment [2], this compound showed a Ke of 15.1 nM.

`CCN(CC)C[C@H](C(C)C)N(C)C(=O)Cc1ccc(Cl)c(Cl)c1`: in experiment [1], the Potency ratio was found to be 0.3. The same compound yielded a Ke in experiment [2] of 14.2 nM.

As for `COc1ccc(CC(=O)N(C)[C@H](CN2CCCC2)C(C)C)cc1`, the Potency ratio in experiment [1] came to 0.06. The same compound came in with a Ke in experiment [2] of 14.3 nM.

(Values after ChEMBL document CHEMBL1125782, “Structure/activity studies related to 2-(3,4-dichlorophenyl)-N-methyl-N-[2-(1-pyrrolidinyl)-1-substituted- ethyl]acetamides: a novel series of potent and selective kappa-opioid agonists” (1991).)
